# Values of other authors as cited in publication PMC7218169 (Frontiers in Immunology, 2020).
# Test system: HIV-1
# Details: ACTG 5315, 3 RMD doses (5 mg/m^2 BSA) every two weeks, chronically suppressed individuals; cited from earlier work
smiles,measurement,value
"C/C=C1\NC(=O)[C@H]2CSSCC/C=C/[C@H](CC(=O)N[C@H](C(C)C)C(=O)N2)OC(=O)[C@H](C(C)C)NC1=O [RMD, Romidepsin]",Changes in viral transcription,did not show changes in viral transcription
